The series has as its system cultured SF cells. Nature of the series: effect of TG-2 inhibitors on cultured scleral fibroblast growth (XCELLigence). The series is classed as cell-based. The settings on record: treated SF cells. The procedure: To test the effect of TG-2 inhibitors on cultured scleral fibroblast growth, cultured SF cells at passage 4 were treated with TG-2 inhibitors at baseline, 0.1, 1, 10 and 100 μM for 5 days. The SF cell growth was monitored by XCELLigence cell impedance.

This note sets out measurements from US20140050779A1, “[…]-2 INHIBITORS AND USES THEREOF” (SINGAPORE HEALTH SERVICES PTE. LTD., priority 2011, published 2014).

As for TAMRA-DON [R002], the cell morphology entry is listed as “No change”.
